# Antibody variant affinities, Ab-95 light chain, assay 2

Data: MIT Lincoln Laboratory AlphaSeq set, Engelhart et al. 2022, doi:10.1038/s41597-022-01779-4, as distributed in FLAb.

Target: peptide PDVDLGDISGINAS, taken from heptad repeat 2 (HR2) of SARS-CoV-2 spike.

Each scFv is VH, the linker GGGGSGGGGSGGGGS, VL, as in the parent Ab-95, and differs from it in the CDRs of the light chain only.
VH: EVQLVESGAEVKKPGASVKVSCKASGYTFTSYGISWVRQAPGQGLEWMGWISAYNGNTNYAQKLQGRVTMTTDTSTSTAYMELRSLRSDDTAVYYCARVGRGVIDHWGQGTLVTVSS
VL: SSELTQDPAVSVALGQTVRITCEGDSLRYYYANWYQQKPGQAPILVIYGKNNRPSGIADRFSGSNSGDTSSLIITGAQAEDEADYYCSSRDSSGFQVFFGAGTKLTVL

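The starting antibody came from a phage panning campaign against this peptide. AAYL52 was designed without a model: most single CDR substitutions and a random sample of double and triple ones. In AlphaSeq, yeast of one mating type display the scFv and yeast of the other type display the target. Pairs that bind mate more often; barcode pairs of the diploids are counted by sequencing. A regression on co-assayed BCL2-family reference pairs converts the normalised counts of each replicate to an apparent Kd. Each pool was mated in three replicate cultures.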

Variants are written as CDR1, CDR2 and CDR3 of the light chain (limits as in the source). Parent: EGDSLRYYYAN, GKNNRPS, SSRDSSGFQVF. All variants listed here change Q96 of the VL, counted from its first residue. Scale: log10 of Kd in nM, estimated from mating counts; low values are strong binders. A mean of the replicates is given; it leaves out those without a signal. "nd" means that the variant was in the library but no mating with the target was seen in that replicate; the authors take this as a sign of poor binding, and no number exists. Entries are sorted by rising average, undetected variants last. Parent in this assay: reference entry 2.31, copy in this library 2.25. Nonspecific signal, from three strains lacking the peptide, appeared in 28% of pairings of library AAYL52, centred on 3.91 (5% of these signals below 2.90); values are not corrected for it.

Variant EGDSLRYYYAN | GKNNRPS | SSRDSSGFGLF gave 2.03, 1.95, 1.81 (mean 1.93). Variant EGDSLEYYYAN | GKNNRPS | SSRDSCGFDVF showed 1.99, 2.13, 1.73 (mean 1.95). For EGDSLRYYYAN | GGNNRPS | SSRDSSGFGVF, the assay gave 2.53, 2.00, 1.55 (mean 2.03). For EGDSLQYYYAN | GKNNRPS | SARDSSGFAVF, the assay gave 2.17, 1.98, 2.02 (mean 2.06). Variant EGDSLRYYYAN | GKNNRPS | SSRDSSGFNVF gave 2.57, 2.65, 1.75 (mean 2.32). For EGDSLRYYYAN | GKNNRPS | SSRRLSGFRVF, the assay gave 2.35, 2.22, 2.58 (mean 2.38). Variant EGDSLRYYYAN | GKNNRPS | SSRDNGGFVVF gave 2.28, 2.31, 2.89 (mean 2.49). With EGDSLRYYYAN | GKQNRPS | SSRDSSGFLVF the result was 2.56, 2.63, 2.62 (mean 2.60).

With EGDSLRYYYAN | GKNNRPP | SSRDSSGFFVF the result was 3.56, 2.76, 2.16 (mean 2.83). For EGDSLRYYYAN | GKNNRAS | SSIDSSGFAVF, the assay gave 3.08, 3.05, 2.84 (mean 2.99). Variant EGDSLRYYYAN | GKQNRPS | SLRDSSGFEVF gave 2.91, 2.47, 3.73 (mean 3.03). Variant SGDSLRYYYAN | GKNGRPS | SSRDSSGFFVF showed 3.20, 2.88, 3.07 (mean 3.05). Variant EGDSLRYYYAN | GYNNRPS | SSRDHSGFHVF gave 3.20, 3.02, 3.44 (mean 3.22). Variant EGDSLRYYYAN | GTNNRPS | SSRDSSGFMVF gave 4.01, 3.06, 2.66 (mean 3.24). Variant EGDSLRYKYLN | GKNNRPS | SSRDSSGFYVF showed 3.27, 3.49, 3.12 (mean 3.29). With EGDLLRYYYAN | GKNNRPS | SSRDSSKFFVF the result was 3.34, nd, nd.

With EGDSLRYYYAN | GKNNRSS | SSHDSSGFTVF the result was 3.42, nd, nd. With EGDSMLYYYAN | GKNNRPS | SSRDSSGFSVF the result was 3.09, 3.61, 3.58 (mean 3.43). Variant EGDSLRYYYAN | GKNNRPS | SSRDSSHFDVF showed 3.21, 3.10, 4.19 (mean 3.50). With EGDSLRYYYAN | GKKNRPS | SSRDSSGHKVF the result was 3.36, 3.84, 3.86 (mean 3.69). Variant EGDSGRYYTAN | GKNNRPS | SSRDSSGFLVF showed 3.34, nd, 4.04 (mean 3.69). With EGDSLRSYYAN | GKNNRPS | SSSDSSGFAVF the result was 3.91, nd, nd. With EGDSLRYYYAN | GKFNRPS | SSRNSSGFLVF the result was nd, 4.13, nd. With EGVSLVYYYAN | GKNNRPS | SSRDSSGFFVF the result was 3.37, 5.01, 4.16 (mean 4.18).

For EGDSLRYYYAN | GKNNRPH | SSRDSSGFAVK, the assay gave 4.60, nd, nd. Variant EGDSLRYYYAN | GHNNRPS | SSLDSSGFSVF showed 4.92, nd, nd. For EGDSLRYYYAN | GKNNRPC | CSRDSSGFPVF, the assay gave nd, 5.73, nd. With EGDSLRYYYAN | GKNNRPS | SSRCSSGFYVK the result was nd, nd, nd. Variant ETVSLRYYYAN | GKNNRPS | SSRDSSGFIVF gave nd, nd, nd. Variant EGDSLRYYYAN | GKNNRPS | DSRDSGGFKVF gave nd, nd, nd.

Extract of 2 entries:

With EGDSLRYYYAN | GKNNRPS | SSRDSSGFNVF the result was 2.57, 2.65, 1.75 (mean 2.32).
With EGDSLRYKYLN | GKNNRPS | SSRDSSGFYVF the result was 3.27, 3.49, 3.12 (mean 3.29).